The values below come from patent US8841291B2, “Selective hydroxamic acid based MMP-12 and MMP-13 inhibitors” (Novartis AG, priority 2008, dated 2014).

The structures appear in SMILES notation.

For orientation: IC50 means the concentration that gives 50% inhibition.

For one assay, the target named is T1, Gelatinase (MMP-2) (Homo sapiens, UniProt P08253).
T1 sequence (P08253 110-660): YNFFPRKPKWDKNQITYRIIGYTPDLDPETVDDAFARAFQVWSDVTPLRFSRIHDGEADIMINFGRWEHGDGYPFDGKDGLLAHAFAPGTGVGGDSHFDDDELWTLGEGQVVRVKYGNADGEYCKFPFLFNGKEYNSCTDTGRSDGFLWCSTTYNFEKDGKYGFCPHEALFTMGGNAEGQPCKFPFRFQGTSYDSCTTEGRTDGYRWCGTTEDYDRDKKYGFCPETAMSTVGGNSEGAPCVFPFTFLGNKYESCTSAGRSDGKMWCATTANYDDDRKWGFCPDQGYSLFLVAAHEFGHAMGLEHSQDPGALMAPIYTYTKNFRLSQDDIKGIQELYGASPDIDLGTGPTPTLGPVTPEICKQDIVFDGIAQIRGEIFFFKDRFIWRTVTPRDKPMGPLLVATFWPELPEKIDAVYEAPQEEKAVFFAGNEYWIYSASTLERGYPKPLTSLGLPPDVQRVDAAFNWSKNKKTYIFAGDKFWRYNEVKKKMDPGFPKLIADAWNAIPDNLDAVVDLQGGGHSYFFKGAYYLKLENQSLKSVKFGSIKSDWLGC
Put plainly: Gelatinase (MMP-2) inhibitory activity, fluorogenic peptide substrate assay.
Conditions: not given
The assay is classed as biochemical.
`CC(C)[C@H](C(=O)NO)N(Cc1cccnc1)S(=O)(=O)c1ccc2ccccc2c1` [Example 45, N-Hydroxy-3-methyl-2-[(naphthalene-2-sulfonyl)-pyridin-3-ylmethyl-amino]-butyramide] came in with an IC50 of 25.5 nM.

Staying with this assay, now noted: substrate 5 μM, 60 min preincubation, 20-25° C.; read-out: MMP2 IC50.
In the case of `CC(C)CCN([C@H](CCc1ccccc1)C(=O)NO)S(=O)(=O)c1ccc2ccccc2c1` [Example 7, (R)—N-Hydroxy-2-[(3-methyl-butyl)-(naphthalene-2-sulfonyl)-amino]-4-phenyl-butyramide], the IC50 is 458 nM. With `CC(C)[C@H](C(=O)NO)N(Cc1ccccc1)S(=O)(=O)c1ccc2ccccc2c1` [Example 10, 2-[Benzyl-(naphthalene-2-sulfonyl)-amino]-N-hydroxy-3-methyl-butyramide], the IC50 was determined as 706 nM. As to `CC(C)[C@H](C(=O)NO)N(CCc1ccccc1)S(=O)(=O)c1ccc2ccccc2c1` [Example 13], the IC50 was found to be 200 nM. Same read-out and setting: the same measure for `CC(C)CCN([C@@H](C(=O)NO)C(C)C)S(=O)(=O)c1ccc2ccccc2c1` [Example 22, N-Hydroxy-3-methyl-2-[(3-methyl-butyl)-(naphthalene-2-sulfonyl)-amino]-butyramide]: 384 nM; for `CC(C)CCN([C@@H](C(=O)NO)C(C)C)S(=O)(=O)c1ccc2cc(O)ccc2c1` [Example 31, N-Hydroxy-2-[(6-hydroxy-naphthalene-2-sulfonyl)-(3-methyl-butyl)-amino]-3-methyl-butyramide]: 178 nM; for `COc1ccc2cc(S(=O)(=O)N(CCC(C)C)[C@@H](C(=O)NO)C(C)C)ccc2c1` [Example 36, N-isoamyl-N-(6-methoxynaphthalene-2-sulfonyl)-D-valine hydroxamic acid]: 180 nM. On the same count and under the same terms, the same measure for `CC(C)CCN([C@@H](C(=O)NO)C(C)C)S(=O)(=O)c1ccc2ccc(O)cc2c1` [Example 37, N-isoamyl-N-(6-hydroxynaphthalene-2-sulfonyl)-D-valine hydroxamic acid]: 3290 nM; for `COc1ccc2ccc(S(=O)(=O)N(CCC(C)C)[C@@H](C(=O)NO)C(C)C)cc2c1` [Example 40, (R)—N-Hydroxy-2-[(7-methoxy-naphthalene-2-sulfonyl)-(3-methyl-butyl)-amino]-3-methyl-butyramide]: 4370 nM; for `CCOc1ccc2cc(S(=O)(=O)N(CCC(C)C)[C@@H](C(=O)NO)C(C)C)ccc2c1` [Example 42, 2-[(6-Ethoxy-naphthalene-2-sulfonyl)-(3-methyl-butyl)-amino]-N-hydroxy-3-methyl-butyramide]: 307 nM.

As for `CC(C)CCOc1ccc2cc(S(=O)(=O)N(CCC(C)C)[C@@H](C(=O)NO)C(C)C)ccc2c1` [Example 47, N-Hydroxy-3-methyl-2-[[6-(3-methyl-butoxy)-naphthalene-2-sulfonyl]-(3-methyl-butyl)-amino]-butyramide], the IC50 was determined as 931 nM. As to `CC(C)CCN([C@@H](C(=O)NO)C(C)C)S(=O)(=O)c1ccc2cc(OCc3ccccc3)ccc2c1` [Example 53, 2-[(6-Benzyloxy-naphthalene-2-sulfonyl)-(3-methyl-butyl)-amino]-N-hydroxy-3-methyl-butyramide], the IC50 was 1610 nM. With `CC(C)[C@H](C(=O)NO)N(Cc1ccccn1)S(=O)(=O)c1ccc2ccccc2c1` [Example 54, (R)—N-Hydroxy-3-methyl-2-[(naphthalene-2-sulfonyl)-pyridin-2-ylmethyl-amino]-butyramide], the IC50 came out at 232 nM.

Regarding `CC(C)[C@H](C(=O)NO)N(CCN(C)C)S(=O)(=O)c1ccc2ccccc2c1` [Example 56, N-(2-Dimethylamino-ethyl)-N-(6-methoxynaphthalene-2-sulfonyl)-D-valine hydroxamic acid], the IC50 was 607 nM. Same read-out and setting: next, `CC(C)CCN([C@@H](C(=O)NO)C(C)C)S(=O)(=O)c1ccc2ncccc2c1` [Example 67, (R)—N-Hydroxy-3-methyl-2-[(3-methyl-butyl)-(quinoline-6-sulfonyl)-amino]-butyramide]: 306 nM; `CC(C)CCN([C@@H](C(=O)NO)C(C)(C)C)S(=O)(=O)c1ccc2ccccc2c1` [Example 69, (R)—N-Hydroxy-3,3-dimethyl-2-[(3-methyl-butyl)-(naphthalene-2-sulfonyl)-amino]-butyramide]: 3670 nM; `CCCOc1ccc2cc(S(=O)(=O)N(CCC(C)C)[C@@H](C(=O)NO)C(C)C)ccc2c1` [Example 87, N-Hydroxy-3-methyl-2-[(3-methyl-butyl)-(6-propoxy-naphthalene-2-sulfonyl)-amino]-butyramide]: 197 nM.
